Source: patent US9439979B2, “Epidermal growth factor receptor (EGFR) and methods of use in adenoviral-associated virus type 6 (AAV6) transduction” (priority 2010, dated 2016)

Test system: 32D-EGFR cells
Assay: AAV internalization in 32D-EGFR cells (QPCR of vector genome)
Settings: AAV6 in 32D-EGFR cells, in the presence of gefitinib; 90 minutes at 37° C.

COc1cc2ncnc(Nc3ccc(F)c(Cl)c3)c2cc1OCCCN1CCOCC1 [gefitinib]
decrease of AAV internalization: over 500%
